The text below walks through data of ChEMBL document CHEMBL1671784 (J Med Chem, 2011).

Amino acid sequences for entries named in this document (tags omitted). A change or cut given only in a name is not applied to a line headed by its entry.
UniProt P35372, whole entry: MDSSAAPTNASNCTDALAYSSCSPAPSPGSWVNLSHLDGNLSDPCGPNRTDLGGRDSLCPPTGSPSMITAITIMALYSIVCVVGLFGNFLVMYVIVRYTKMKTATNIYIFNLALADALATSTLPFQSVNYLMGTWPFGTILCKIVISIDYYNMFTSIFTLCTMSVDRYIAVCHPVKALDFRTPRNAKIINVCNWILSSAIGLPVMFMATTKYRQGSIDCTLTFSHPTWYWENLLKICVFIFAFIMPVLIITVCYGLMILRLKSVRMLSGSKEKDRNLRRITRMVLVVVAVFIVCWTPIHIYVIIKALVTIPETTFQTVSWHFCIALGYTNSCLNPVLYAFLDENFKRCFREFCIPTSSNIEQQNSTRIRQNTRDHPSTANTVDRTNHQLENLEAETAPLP
UniProt P41143, whole entry: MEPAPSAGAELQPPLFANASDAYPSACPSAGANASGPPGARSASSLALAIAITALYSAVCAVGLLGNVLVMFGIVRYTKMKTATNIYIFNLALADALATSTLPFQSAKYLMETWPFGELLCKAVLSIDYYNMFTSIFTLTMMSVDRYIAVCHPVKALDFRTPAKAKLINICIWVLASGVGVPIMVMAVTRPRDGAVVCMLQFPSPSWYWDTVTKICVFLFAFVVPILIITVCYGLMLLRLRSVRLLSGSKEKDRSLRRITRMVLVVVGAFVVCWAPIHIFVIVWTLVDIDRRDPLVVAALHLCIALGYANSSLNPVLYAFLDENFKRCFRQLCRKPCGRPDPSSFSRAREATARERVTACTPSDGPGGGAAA
UniProt P41144: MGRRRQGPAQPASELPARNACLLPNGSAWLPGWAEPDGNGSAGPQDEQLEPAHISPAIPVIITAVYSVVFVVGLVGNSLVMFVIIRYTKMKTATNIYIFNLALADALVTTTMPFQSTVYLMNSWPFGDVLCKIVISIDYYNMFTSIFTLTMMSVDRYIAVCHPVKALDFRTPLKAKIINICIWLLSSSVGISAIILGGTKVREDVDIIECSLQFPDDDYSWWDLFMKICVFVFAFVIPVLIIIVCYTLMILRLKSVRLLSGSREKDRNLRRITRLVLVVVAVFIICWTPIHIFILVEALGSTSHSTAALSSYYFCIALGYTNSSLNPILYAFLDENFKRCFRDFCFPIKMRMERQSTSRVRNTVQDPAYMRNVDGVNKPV

Molecules are shown by their SMILES.

One may read the EC50 as the midpoint of the concentration-response curve. A word on the Ki: it is a measure of affinity in units of concentration, obtained from inhibition or displacement.

Test [1] has as its target Mu-type opioid receptor (Homo sapiens, UniProt P35372). The test is described as follows: biochemical.
Test [2] addresses Delta-type opioid receptor (Homo sapiens, UniProt P41143). The test is described as follows: biochemical.
Test [3] has as its target Kappa-type opioid receptor (Cavia porcellus, UniProt P41144). It counts as cell membranes, Brain, Membrane.

Take `Cl.Cl.O=C(O)CN[C@H]1CC[C@@]2(OCCCc3ccccc3)[C@H]3Cc4ccc(O)c5c4[C@@]2(CCN3CC2CC2)[C@H]1O5`: the EC50 in test [1] and in test [2] was 690 pM throughout.

Molecule `O=C1CC[C@@]2(OCCCc3ccccc3)[C@H]3Cc4ccc(O)c5c4[C@@]2(CCN3CC2CC2)[C@H]1O5` had a Ki in test [3] of 410 pM.
